Measurements from patent US7989464B2, “mGluR1 antagonists as therapeutic agents” (Schering Corporation, priority 2004, dated 2011).

The chains behind the UniProt entries cited, without tags or fusion partners. Residues count along the entry.
UniProt Q13255, 19-1194 limits assumed: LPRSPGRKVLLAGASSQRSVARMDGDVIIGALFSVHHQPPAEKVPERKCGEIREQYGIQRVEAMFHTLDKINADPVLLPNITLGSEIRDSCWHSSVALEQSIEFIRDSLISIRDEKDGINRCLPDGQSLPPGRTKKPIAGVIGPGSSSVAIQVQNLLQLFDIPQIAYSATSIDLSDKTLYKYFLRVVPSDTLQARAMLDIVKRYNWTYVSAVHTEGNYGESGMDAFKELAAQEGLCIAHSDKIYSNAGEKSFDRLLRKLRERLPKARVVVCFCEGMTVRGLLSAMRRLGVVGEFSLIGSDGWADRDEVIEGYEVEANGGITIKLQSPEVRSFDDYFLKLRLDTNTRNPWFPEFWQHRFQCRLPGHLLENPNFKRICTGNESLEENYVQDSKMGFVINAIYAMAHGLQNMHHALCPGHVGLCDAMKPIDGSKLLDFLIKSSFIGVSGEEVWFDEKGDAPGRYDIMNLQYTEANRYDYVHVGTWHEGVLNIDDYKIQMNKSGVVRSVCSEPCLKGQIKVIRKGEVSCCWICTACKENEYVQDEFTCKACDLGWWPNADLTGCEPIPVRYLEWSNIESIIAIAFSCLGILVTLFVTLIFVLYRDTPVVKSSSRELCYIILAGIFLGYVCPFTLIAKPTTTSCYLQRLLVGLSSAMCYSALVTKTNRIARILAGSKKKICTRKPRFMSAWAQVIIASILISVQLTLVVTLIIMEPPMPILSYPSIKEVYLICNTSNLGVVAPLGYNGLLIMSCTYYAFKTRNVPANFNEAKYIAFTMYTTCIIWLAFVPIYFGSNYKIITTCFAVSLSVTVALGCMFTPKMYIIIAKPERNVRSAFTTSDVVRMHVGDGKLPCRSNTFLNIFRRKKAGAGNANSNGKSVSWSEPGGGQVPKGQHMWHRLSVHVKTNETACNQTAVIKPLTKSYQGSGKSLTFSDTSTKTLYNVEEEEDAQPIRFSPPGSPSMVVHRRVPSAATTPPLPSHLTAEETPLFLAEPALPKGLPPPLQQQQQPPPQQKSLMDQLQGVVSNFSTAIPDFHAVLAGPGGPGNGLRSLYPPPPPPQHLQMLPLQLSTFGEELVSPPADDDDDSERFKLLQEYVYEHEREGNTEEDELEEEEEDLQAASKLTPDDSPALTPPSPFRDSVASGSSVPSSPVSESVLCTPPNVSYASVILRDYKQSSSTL

Molecular target: hmGluR1 receptor (Homo sapiens, UniProt Q13255)
Assay: IC50 determination: intracellular calcium mobilization (FLIPR) upon Quisqualate stimulation in CHO cells stably expressing hmGluR1
Assay type: cell-based
Conditions: read-out: IC50 Class, against Quisqualate 1 μM (EC80)

IC50: > 1000 nM
SMILES: Cc1ccc(-n2cnc3c(sc4nccc(CN)c43)c2=O)cc1
